This passage reports Ki results from patent US9873704B2, “Heterocyclic compounds and their uses” (Amgen Inc., priority 2009, dated 2018).

By UniProt entry, the sequences of proteins in these tests, tags left out. Where a name states a change or a piece, a line headed by the entry shows the natural chain unless it says otherwise.
UniProt O00329: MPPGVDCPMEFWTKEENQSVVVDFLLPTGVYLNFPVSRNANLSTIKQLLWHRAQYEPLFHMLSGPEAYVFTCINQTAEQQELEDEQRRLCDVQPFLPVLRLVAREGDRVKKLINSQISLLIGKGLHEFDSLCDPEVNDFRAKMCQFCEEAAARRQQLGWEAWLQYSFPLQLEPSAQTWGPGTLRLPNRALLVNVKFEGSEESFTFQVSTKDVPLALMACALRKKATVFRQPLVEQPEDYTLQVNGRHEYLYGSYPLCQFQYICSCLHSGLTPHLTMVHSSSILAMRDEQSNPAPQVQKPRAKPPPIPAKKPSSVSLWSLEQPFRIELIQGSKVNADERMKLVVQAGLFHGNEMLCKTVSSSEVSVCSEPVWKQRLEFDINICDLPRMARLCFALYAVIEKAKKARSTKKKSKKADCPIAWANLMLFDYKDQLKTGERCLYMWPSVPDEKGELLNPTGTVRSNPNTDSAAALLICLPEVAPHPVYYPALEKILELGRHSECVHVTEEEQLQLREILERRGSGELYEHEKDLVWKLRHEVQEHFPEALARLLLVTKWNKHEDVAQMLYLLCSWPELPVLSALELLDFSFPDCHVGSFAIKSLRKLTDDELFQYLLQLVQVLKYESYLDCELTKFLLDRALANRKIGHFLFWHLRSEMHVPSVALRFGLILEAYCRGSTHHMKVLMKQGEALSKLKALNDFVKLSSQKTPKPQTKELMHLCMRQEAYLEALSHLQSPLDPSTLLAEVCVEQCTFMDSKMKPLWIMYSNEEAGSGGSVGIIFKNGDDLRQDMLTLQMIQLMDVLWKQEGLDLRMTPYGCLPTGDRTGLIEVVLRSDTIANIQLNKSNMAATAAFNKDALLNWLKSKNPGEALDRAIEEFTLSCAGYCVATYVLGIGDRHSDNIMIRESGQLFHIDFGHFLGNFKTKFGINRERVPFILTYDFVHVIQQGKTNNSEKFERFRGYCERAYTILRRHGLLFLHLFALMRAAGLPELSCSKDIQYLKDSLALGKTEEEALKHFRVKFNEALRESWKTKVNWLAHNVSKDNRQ

This test has as its target T1, PI3Kδ (Homo sapiens, UniProt O00329).
T1 construct: Full length p110 subunits of PI3k α, β and δ, N-terminally labeled with polyHis tag; polyHis (N); made in house; host or cells: Sf9 insect cells (baculovirus)
Description: PI3Kδ Alphascreen assay. Format: biochemical.
On to `CC(Nc1nc[nH]c(=O)c1C#N)c1nc2ccc(F)cc2cc1-c1ccccn1` (stereo not drawn) [4-(1-(6-Fluoro-3-(pyridin-2-yl)quinolin-2-yl)ethylamino)-6-hydroxypyrimidine-5-carbonitrile], for which the Ki was 54.8 nM.

For the compound `CC(Nc1ncnc(N)c1C#N)c1nc2ccc(F)cc2cc1-c1ccccn1` (stereo not drawn) [4-Amino-6-(1-(6-fluoro-3-(pyridin-2-yl)quinolin-2-yl)ethylamino)pyrimidine-5-carbonitrile], the affinity, expressed as Ki, was 4.22 nM.

Compound `CC(Nc1ncnc(N)c1C#N)c1nc2ccc(F)cc2c(NCCN(C)C)c1-c1ccccc1` (stereo not drawn) registered an inhibition constant Ki of 1.33 nM.
